# US20230095701A1, “Use of Albiflorin in Treatment of Coronavirus Pneumonia” (priority 2020, published 2023)
# Test system: cPLA2
# Assay: cPLA2 in hippocampus of chronic unpredictable mild stress (CUMS) rats
# Settings: 7 days, 3.5 mg/day, 7 mg/day, 14 mg/day, P<0.01, dose dependency, FIG. 9
smiles,measurement,value
C[C@]12C[C@@H](O)[C@@H]3C[C@@]1(O[C@@H]1O[C@H](CO)[C@@H](O)[C@H](O)[C@H]1O)[C@@]3(COC(=O)c1ccccc1)C(=O)O2 [Albiflorin],phospholipase A2 (cPLA2) in the hippocampus,significantly decreased
